The values that follow are results of earlier work, collected in patent US20230000960A1, “NEOANTIGEN COMPOSITIONS AND USES THEREOF” (BIONTECH US INC., priority 2019, published 2023).

The conditions of the data set: more than 25 clinical trials.

On to poly-ICLC, for which the toxicity profile entry is listed as “relatively benign toxicity profile”.
